Chains of the proteins cited; added tags and fusions are not shown.
UniProt P31652, whole entry: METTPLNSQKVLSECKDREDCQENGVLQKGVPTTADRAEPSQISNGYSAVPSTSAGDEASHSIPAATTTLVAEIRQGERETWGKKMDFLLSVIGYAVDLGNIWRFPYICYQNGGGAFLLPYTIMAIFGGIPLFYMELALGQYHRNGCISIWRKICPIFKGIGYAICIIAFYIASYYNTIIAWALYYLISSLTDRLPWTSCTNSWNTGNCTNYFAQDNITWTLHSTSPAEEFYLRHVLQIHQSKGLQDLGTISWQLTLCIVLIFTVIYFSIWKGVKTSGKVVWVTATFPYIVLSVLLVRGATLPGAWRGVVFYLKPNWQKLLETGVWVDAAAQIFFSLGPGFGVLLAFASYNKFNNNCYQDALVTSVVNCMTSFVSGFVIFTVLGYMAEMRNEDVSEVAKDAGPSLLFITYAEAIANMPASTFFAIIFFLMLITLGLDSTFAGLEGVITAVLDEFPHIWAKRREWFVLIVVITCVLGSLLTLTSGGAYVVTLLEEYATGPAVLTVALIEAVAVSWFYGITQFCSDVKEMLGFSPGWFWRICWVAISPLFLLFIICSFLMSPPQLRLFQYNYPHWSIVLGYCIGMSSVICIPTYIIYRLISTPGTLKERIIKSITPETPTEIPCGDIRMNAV

According to patent publication US20110092703A1, “P2X4 RECEPTOR ANTAGONIST” (NIPPON CHEMIPHAR CO., LTD., priority 2007, published 2011):

Molecular target: T1, serotonin reuptake (Rattus norvegicus, UniProt P31652)
T1 construct: synaptosomes prepared from the rat brain; from tissue; host or cells: rat brain synaptosomes
Assay: Serotonin reuptake inhibition assay ([3H]serotonin, synaptosomes prepared from the rat brain)
Assay type: biochemical
Settings: read-out: Percent inhibition (10^−7 M)

`Fc1ccc([C@@H]2CCNC[C@H]2COc2ccc3c(c2)OCO3)cc1` [Paroxetine, reference compound] was tested, and the inhibition at 0.1 µM was 97%.
